Source: ChEMBL document CHEMBL1142487, “Design, synthesis, and structure-activity relationship of novel opioid kappa-agonists” (Bioorg Med Chem, 2008)

Sequences of proteins named here, by UniProt entry; tags and fusion partners are left off. A change or cut given only in a name is not applied to a line headed by its entry.
UniProt P41144: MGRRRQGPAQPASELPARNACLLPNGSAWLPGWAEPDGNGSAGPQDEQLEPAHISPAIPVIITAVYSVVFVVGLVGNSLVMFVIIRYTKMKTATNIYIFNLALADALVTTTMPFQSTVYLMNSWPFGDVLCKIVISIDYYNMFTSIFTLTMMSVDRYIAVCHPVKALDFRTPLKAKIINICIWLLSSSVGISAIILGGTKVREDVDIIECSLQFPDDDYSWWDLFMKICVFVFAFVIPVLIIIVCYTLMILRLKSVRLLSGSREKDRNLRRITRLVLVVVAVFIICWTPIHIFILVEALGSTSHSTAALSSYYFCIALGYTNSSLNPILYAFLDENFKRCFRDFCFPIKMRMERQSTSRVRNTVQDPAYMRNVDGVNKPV

Assays:
Mus musculus = test: Antinociceptive activity in po dosed mouse by tail flick test; assay type: functional
[1] = molecular target: Kappa-type opioid receptor (Cavia porcellus, UniProt P41144); test: Agonist activity at kappa opioid receptor in guinea pig ileum assessed as inhibition of electric stimulation-induced contraction

## CN(C(=O)Cc1ccc(Cl)c(Cl)c1)C1CCCCC1N1CCCC1 (configuration not stated)
Mus musculus
  ED50: 5.18 mg/kg
[1]
  IC50: 1.12 nM
